Test system: cholesterol biosynthesis in Hep G2 cells
Assay: Test B (B-1): Inhibition of cholesterol biosynthesis in culture cells (Hep G2)
Format: cell-based
Settings: [2-14C]sodium acetate added at 0 hr (B-1), 4 hrs incubation, read-out: I50, inhibitory activities by Test B-1
Protocol: Test B: Inhibition of cholesterol biosynthesis in culture cells
Hep G2 cells at over 5th passage were seeded to 12 well plates and incubated with Dulbecco's modified Eagle (DME) medium containing 10% of fetal bovine serum (FBS) at 37° C., 5% CO2 until cells were confluent for about 7 days. Cells were exposed to the DME medium containing 5% of lipoprotein deficient serum (LpDS) prepared by ultracentrifugation method for over 24 hours. Medium was changed to 0.5 ml of fresh 5% LpDS containing DME before assay and 10 μl of test compound solution dissolved in water or DMSO were added. 0.2 μCi of [2-^14 C]sodium acetate (20 μl) was added at 0 hr(B-1) or 4 hrs(B-2) after addition of compounds. After 4 hrs further incubation with [2-^14 C]sodium acetate, medium was removed and cells were washed with phosphate buffered saline(PBS) chilled at 4° C. Cells were scraped with rubber policeman and collected to tubes with PBS and digested with 0.2 ml of 0.5N KOH at 37° C. Aliquot of digestion was used for protein analysis and remaining was saponified with 1 ml of 15% EtOH-KOH at 75° C. for 1 hour. […] Counts were revised by cell protein and indicated with DPM/mg protein. Inhibitory activity of compounds was indicated with IC50.

CC[C@H](C)C(=O)O[C@H]1C[C@H](O)C=C2C=C[C@H](C)[C@H](CC[C@@H](O)C[C@@H](O)CC(=O)O)[C@H]21 [CS-514]
IC50: 350 nM
